Test system: IFN responsive genes (2′,5′-OAS, MX1)
Assay: RT-PCR expression of IFN responsive genes in rat bladder homogenates after IFN protein in a SYN3 formulation
Assay type: in vivo
Settings: administered in a SYN3 formulation

Substance: Intron A: IFNα2b protein (Intron A)
- expression levels compared to those after administration of rAd-IFNα2b or rAd-IFNα2α1: somewhat inferior
- expression of the rat OAS and MX1 genes: increased
